The target in the test is T1, flag-IR1B4 (IR1B4 protein with a flag tag, translated in vitro in rabbit reticulocyte lysate, [35S]methionine … (human, [35S]methionine label).
T1 construct: Made from the XhoI insert of pACT-IR1B4; In the Cos-7 experiment the same construct was expressed in cells; also called IR1B4-flag; flg-IR1B4
In words: GST pull-down on glutathione beads, SDS-PAGE, Phosphor-Imager.

B1: GST alone (Glutathione S-transferase) (other, UniProt P08515 1-218, looked up)
chain: MSPILGYWKIKGLVQPTRLLLEYLEEKYEEHLYERDEGDKWRNKKFELGLEFPNLPYYIDGDVKLTQSMAIIRYIADKHNMLGGCPKERAEISMLEGAVLDIRYGVSRIAYSKDFETLKVDFLSKLPEMLKMFEDRLCHKTYLNGDHVTHPDFMLYDALDVVLYMDPMCLDAFPKLVCFKKRIEAIPQIDKYLKSSKYIAWPLQGWQATFGGGDHPPK
notes: Control beads of the pull-down
For B1, the binding result is on record as “no binding”.

Values taken from US20030176678A1 (YEDA RESEARCH AND DEVELOPMENT, published 2003).
